Values quoted from earlier work, collected in patent US6849254B1, “HCV combination therapy” (Schering Corporation, priority 1999, dated 2005).

Conditions: healthy volunteers; single oral dose of 400 IU, 800 IU and 1200 IU (Dimitrov et al.)

## d-alpha-tocopheryl polyethylene glycol 1000 succinate [Vitamin E-TPGS]
  Plasma alpha tocopherol concentrations: slight elevation of plasma alpha tocopherol concentrations
